Data as given in patent US8921368B2, “Pyrrolopyridazine JAK3 inhibitors and their use for the treatment of inflammatory and autoimmune diseases” (Bristol-Myers Squibb Company, priority 2011, dated 2014).

By UniProt entry, the sequences of proteins in these tests, tags left out. Where a name states a change or a piece, a line headed by the entry shows the natural chain unless it says otherwise.
UniProt P23458: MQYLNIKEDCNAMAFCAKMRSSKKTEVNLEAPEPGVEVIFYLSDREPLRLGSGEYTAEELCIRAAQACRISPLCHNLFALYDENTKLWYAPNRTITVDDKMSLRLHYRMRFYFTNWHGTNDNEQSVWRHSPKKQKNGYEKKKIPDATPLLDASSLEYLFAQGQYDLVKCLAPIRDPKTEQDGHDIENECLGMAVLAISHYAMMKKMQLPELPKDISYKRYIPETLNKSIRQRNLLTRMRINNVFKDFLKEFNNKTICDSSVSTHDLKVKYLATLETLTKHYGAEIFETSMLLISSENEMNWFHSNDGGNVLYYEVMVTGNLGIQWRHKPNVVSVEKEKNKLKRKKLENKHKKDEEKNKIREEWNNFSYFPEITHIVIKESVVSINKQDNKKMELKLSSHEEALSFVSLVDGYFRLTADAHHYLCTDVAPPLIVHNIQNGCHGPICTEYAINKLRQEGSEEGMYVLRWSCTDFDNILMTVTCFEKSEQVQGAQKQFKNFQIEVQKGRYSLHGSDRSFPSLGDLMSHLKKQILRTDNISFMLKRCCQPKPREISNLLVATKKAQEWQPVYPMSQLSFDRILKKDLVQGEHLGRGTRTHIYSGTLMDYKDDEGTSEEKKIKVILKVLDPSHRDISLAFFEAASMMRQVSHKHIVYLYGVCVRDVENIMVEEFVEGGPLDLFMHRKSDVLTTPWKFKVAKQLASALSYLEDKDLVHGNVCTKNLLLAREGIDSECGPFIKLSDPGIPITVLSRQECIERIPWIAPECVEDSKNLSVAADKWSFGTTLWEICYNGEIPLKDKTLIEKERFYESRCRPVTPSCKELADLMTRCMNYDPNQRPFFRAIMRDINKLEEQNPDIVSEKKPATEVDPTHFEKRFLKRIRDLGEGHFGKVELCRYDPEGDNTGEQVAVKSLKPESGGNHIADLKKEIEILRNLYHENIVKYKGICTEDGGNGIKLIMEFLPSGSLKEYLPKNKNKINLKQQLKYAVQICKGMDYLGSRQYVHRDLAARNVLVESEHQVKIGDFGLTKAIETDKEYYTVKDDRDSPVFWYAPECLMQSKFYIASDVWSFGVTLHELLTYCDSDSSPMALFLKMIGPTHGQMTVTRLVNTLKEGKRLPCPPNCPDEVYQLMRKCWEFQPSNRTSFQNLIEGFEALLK
UniProt P52333: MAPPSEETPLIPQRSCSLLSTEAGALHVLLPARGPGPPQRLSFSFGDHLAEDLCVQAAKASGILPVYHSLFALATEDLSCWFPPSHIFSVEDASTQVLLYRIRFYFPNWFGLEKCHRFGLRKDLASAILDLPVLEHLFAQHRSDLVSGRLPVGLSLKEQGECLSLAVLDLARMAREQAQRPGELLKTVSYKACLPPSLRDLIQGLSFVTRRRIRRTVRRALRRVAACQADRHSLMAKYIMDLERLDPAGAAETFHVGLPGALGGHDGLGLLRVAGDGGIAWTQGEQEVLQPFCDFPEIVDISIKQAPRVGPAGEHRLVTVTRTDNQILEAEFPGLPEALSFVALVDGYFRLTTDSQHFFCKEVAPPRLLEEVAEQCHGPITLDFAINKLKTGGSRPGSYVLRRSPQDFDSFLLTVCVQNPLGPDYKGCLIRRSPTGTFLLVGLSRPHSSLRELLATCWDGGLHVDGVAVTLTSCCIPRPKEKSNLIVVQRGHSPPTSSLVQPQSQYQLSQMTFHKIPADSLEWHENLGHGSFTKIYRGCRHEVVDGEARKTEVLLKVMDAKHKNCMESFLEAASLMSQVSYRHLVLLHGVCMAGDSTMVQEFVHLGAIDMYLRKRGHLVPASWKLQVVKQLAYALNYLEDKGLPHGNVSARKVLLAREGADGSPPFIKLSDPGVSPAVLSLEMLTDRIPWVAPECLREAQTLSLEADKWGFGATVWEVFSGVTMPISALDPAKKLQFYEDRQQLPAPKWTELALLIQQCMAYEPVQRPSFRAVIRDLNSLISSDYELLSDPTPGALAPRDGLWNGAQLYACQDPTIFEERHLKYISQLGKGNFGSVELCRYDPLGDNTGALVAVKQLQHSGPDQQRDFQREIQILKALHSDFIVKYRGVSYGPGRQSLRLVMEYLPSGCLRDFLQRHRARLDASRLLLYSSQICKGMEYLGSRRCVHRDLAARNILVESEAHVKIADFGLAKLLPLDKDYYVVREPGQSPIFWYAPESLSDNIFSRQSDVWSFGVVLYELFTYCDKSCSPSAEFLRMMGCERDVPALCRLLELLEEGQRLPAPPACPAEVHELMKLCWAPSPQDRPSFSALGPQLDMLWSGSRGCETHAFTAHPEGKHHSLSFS

What was measured:
[1] = target: JAK1 (Homo sapiens (Human), UniProt P23458); experiment: JAK1 Kinase Assay Protocol; assay type: biochemical; details: GST-JAK1; ATP 100 μM; Caliper LabChip; read-out: LLE_JAK1 (IC50)
Procedure: JAK1 Kinase Assay Protocol
The assay reactions were performed in U-bottom 384-well plates. The final assay volume was 30 μl prepared from 15 μl additions of enzyme and substrates (fluoresceinated peptide and ATP) and test compounds in assay buffer (20 mM HEPES pH 7.4, 10 mM MgCl2, 25 mM beta-glycerol phosphate, 0.015% Brij35 and 4 mM DTT). The reaction was initiated by the combination of GST-JAK1 enzyme with substrates and test compounds. The reactions were incubated at room temperature for 3 hours and terminated by adding 60 μl of 35 mM EDTA to each sample. […] The final concentration of reagents in the assays was: ATP, 100 μM; fluoresceinated peptide, 1.5 μM; GST-JAK1, 12.5 nM; and DMSO, 1.6%. […] Compounds were dissolved at 10 mM in dimethylsulfoxide (DMSO) and evaluated at eleven concentrations. IC50 values were derived by non-linear regression analysis.

[2] = target: JAK3 (Homo sapiens (Human), UniProt P52333); experiment: JAK3 Kinase Assay (Caliper / Filter protocols); assay type: biochemical; details: JAK3 kinase inhibition; ATP 8 μM; read-out: LLE_JAK3_FB (IC50)
Procedure: JAK3 Kinase Assay Protocol (Caliper)
The assay reactions were performed in U-bottom 384-well plates. […] The reaction was initiated by the combination of GST-JAK3 enzyme with substrates and test compounds. The reactions were incubated at room temperature for 3 hours and terminated by adding 60 μl of 35 mM EDTA to each sample. […] Compounds were dissolved at 10 mM in dimethylsulfoxide (DMSO) and evaluated at eleven concentrations. IC50 values were derived by non-linear regression analysis.
JAK3 Kinase Assay Protocol (Filter)
Kinase reactions consisted of 5 ng of JAK3 enzyme, 30 uM CSKtide substrate, 0.2 μCi ^33P γ-ATP, 8 μM ATP in 30 μl kinase buffer (50 mM Hepes, pH 8.0, 10 mM MgCl2, 1 mM EGTA, 2 mM DTT). Reactions were incubated for 30 minutes at room temperature and stopped by the addition of cold trichloroacetic acid (TCA) to a final concentration of 15%. TCA precipitates were collected onto 384 well phosphocellulose filters (Millipore) using a Platemate to transfer the reaction mixture, washed on an EMBLA plate washer and the filters were quantitated using a TopCount 384-well liquid scintillation counter. […] Compounds were dissolved at 10 mM in dimethylsulfoxide (DMSO) and evaluated at six concentrations, each in triplicate. The final concentration of DMSO in the assay equaled 2%. IC50 values were derived by non-linear regression analysis.

Row | SMILES | IC50 [1] | IC50 [2]
1 | COc1ccc(S(=O)(=O)Nc2cc3c(N[C@@H]4CC[C@@](C)(O)C4(C)C)c(C(N)=O)cnn3c2)cc1 (racemic) [Example 24] | 227 nM | 
2 | Cn1nccc1-c1cc2c(N[C@H]3CC[C@@](C)(O)CC3)c(C(N)=O)cnn2c1 [Example 162, 4-((4-hydroxy-4-methylcyclohexyl)amino)-6-(1-methyl-1H-pyrazol-5-yl)pyrrolo[1,2-b]pyridazine-3-carboxamide] | 108 nM | 
3 | Cc1ccc(-c2cc3c(NC4C5CC6CC4CC(O)(C6)C5)c(C(N)=O)cnn3c2)cc1 (centres unmarked) [Example 187, 4-((5-hydroxyadamantan-2-yl)amino)-6-(4-methylphenyl)pyrrolo [1,2-b]pyridazine-3-carboxamide] |  | 6.1 nM

Continued by falling IC50 [1], values first:

Row | IC50 [1] | IC50 [2] | SMILES
4 | 98.1 nM |  | C[C@]1(F)CCC[C@H]1Nc1c(C(N)=O)cnn2cc(-c3cncc4ccccc34)cc12 (racemic) [Example 68]
5 | 77.1 nM |  | COc1cccc(-c2cc3c(NC4C5CC6CC4CC(O)(C6)C5)c(C(N)=O)cnn3c2)c1 (centres unmarked) [Example 176, 4-((5-hydroxyadamantan-2-yl)amino)-6-(3-methoxyphenyl)pyrrolo [1,2-b]pyridazine-3-carboxamide]
